# Reference: patent publication US20040049009A1, “Methods for improving the antagonistic/agonistic properties of peptidic antagonists/agonists of the corticotropin-releasing factor receptor (crfr)” (published 2004)
# Molecular target: rat CRF receptor, type 1 (rat, UniProt P35353)
# Experiment: SPA competition with 0.05 nM [125I-Tyr0]h/rCRF, HEK-293 membranes; 95% CI (1.3-1.9)
binder,measurement,value
"SEEPPISLDLTFHLLREVLEMARAEQLAQQAHSNRKLMEII (ligand, not fully specified) [human/rat corticotropin-releasing factor]",IC50,1.6 nM
